# Data as given in patent US20230258624A1, “Ex vivo tumour immune microenvironment model, a method for preserving a tumour-specific immune cell profile in an ex vivo tumour immune microenvironment model and use of nanofibrillar cellulose” (UPM-Kymmene Corporation, priority 2022, published 2023).
# Experiments:
# [1] = system: patient-derived breast cancer explant cultures (PDECs); assay type: cell-based, human
# Procedure: Primary breast cancer tissue was processed into small explants (previously described in Haikala et al. (Pharmacological reactivation of MYC-dependent apoptosis induces susceptibility to anti-PD-1 immunotherapy, Nature Communications, 2019, 10:620; https://www.nature.com/articles/s41467-019-08541-2) and embedded in 3D matrices. In total 40 μl of matrix, forming a dome, per well was cultured in 500 μl of MammoCult growth media (STEMCELL, #05620) in ex vivo for 7 days on an 8-well chamber slides (Thermo Fisher Scientific, 177402). The tested 3D matrices were following: NFC (1.0%/0.3%), ANFC (0.7%/0.3%) and ANFC-A (0.7%/0.3%), and as a control undiluted Matrigel. The Matrigel was used as 40 μl of matrix together with 500 μl of MammoCult growth media in a well. The NFCs were diluted to the desired concentrations according to the manufacturer's instructions. ANFC-A was functionalized with human recombinant biotinylated IL-2 (2 ng/ml) (BT202-025/CF, R&D Systems). 50 μl of IL-2 diluted in 1×PBS was mixed with 300 μl (0.3%) or 700 μl (0.7%) of NFC and incubated for 1 hour at RT. Functionalized matrix was mixed with culture media to adjust the correct concentrations (550 μl for 0.3% and 150 μl for 0.7%). […]
# The effects of the 3D culturing on explant viability, proliferation and apoptosis, was analyzed with immunofluorescent staining. […]
# [2] = system: peripheral blood mononuclear cells (PBMC); assay: Flow cytometry of PBMCs grown in matrices for 5 days; assay type: cell-based, human
# Procedure: Buffy coat from one donor was obtained from FRC blood service, Helsinki. Human peripheral blood mononuclear cells were isolated with Ficol-Paque density centrifugation and stored at −145° C. Cells were quickly thawed and mixed with diluted NFC so that one 8-well chamber slides well contained 2 million cells in 40 μl of matrix. 500 μl of media was added on top, and when media was replenished at the day 3, sample was collected for cytokine profiling. At day 5 the growth media was collected for cytokine profiling, and 3D culture was further processed for flow cytometry analysis. In addition to 3D culture, 2 million PBMCs were cultured as a floating culture, where cells were added on a low adhesion 6-well plate in 2 ml of growth media, with or without IL-2 supplementation (2 ng/ml). In floating culture, media was not changed during 5 days of culture.
# NFC-grown PBMCs were stained for immunophenotyping by flow cytometry with lymphocyte and macrophage panel antibodies. […]
# This amount of enzyme could dissociate the NFC efficiently in 1 hour, without harming the cells. […] SYTOX green dead cell marker (Thermo Fisher Scientific, S34860) and Countbright Absolute counting beads (Invitrogen, C36950) were added to sample tubes and the cell counts were normalized to beads counted during the sample acquisition performed with BD FACS Aria II (BD Biosciences). […] The data were analyzed with FlowJo version 10.7. […]
substance,measurement,setting,value
"IL-2: human recombinant biotinylated interleukin-2 (BT202-025/CF, R&D Systems) used to functionalize ANFC-A",adverse effects on epithelial cell viability,[1],not observed to have any adverse effects
same,"effect on NK, NKT, and CD14− monocytes",[2]; IL-2 functionalization of the matrix,positive effect
same,effect on CD14+ monocytes,[2]; IL-2 supplementation (functionalization),negative effect
